Earlier results on one compound are cited in patent US8628797B2, “Oral extended-release composition” (Andrx Pharmaceuticals, LLC, priority 2003, dated 2014).

For the data set the following is noted: in words; literature review.

On to `CCCc1cc(=O)[nH]c(=S)[nH]1` [propylthiouracil], for which the “absorption in the presence of food” value is “unaffected”.
